A word on the IC50: it is the concentration that gives 50% inhibition. By Ki is commonly meant the equilibrium dissociation constant of an inhibitor or competing ligand from its target.

Chains of the proteins cited; added tags and fusions are not shown. Lines headed by an entry give the natural chain unless they say otherwise; changes in a name come on top.
UniProt P00915: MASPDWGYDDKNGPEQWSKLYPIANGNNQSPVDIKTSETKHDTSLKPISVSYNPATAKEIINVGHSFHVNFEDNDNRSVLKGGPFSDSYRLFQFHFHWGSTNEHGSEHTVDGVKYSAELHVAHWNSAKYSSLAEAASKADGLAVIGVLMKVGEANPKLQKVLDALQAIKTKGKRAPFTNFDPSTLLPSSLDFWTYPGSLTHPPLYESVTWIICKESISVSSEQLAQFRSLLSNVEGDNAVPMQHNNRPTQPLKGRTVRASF

The text below walks through data of PMC9655968, “Synthesis of Novel Bromophenol with Diaryl Methanes—Determination of Their Inhibition Effects on Carbonic Anhydrase and Acetylcholinesterase” (Molecules, 2022).

Experiment [1] addresses hCA I (Homo sapiens, UniProt P00915). Type of experiment: biochemical.
Experiment [2] deals with hCA II (Homo sapiens, UniProt P00918).

In the case of “4-Bromo-5-(2-bromo-4-hydroxybenzyl)benzene-1,2-diol [Compound 19]”, the IC50 stood at 0.0315 µM in experiment [1] (esterase method) and 0.0277 µM in experiment [2] (read-out: IC50 hCA II, esterase method). Further, the Ki is 0.0204 ± 0.00292 µM in experiment [1] (from Lineweaver-Burk graphs, mean ± SD) and 0.0151 ± 0.00107 µM in experiment [2] (read-out: Ki hCA II, from Lineweaver-Burk graphs, mean ± SD).
